Data published in ChEMBL document CHEMBL6096635, “Synthesis and biological evaluation of sugar-modified truncated carbanucleosides as A2A and A3 adenosine receptor ligands to explore conformational effect to the receptors” (Bioorg Med Chem, 2024).

The chains behind the UniProt entries cited, without tags or fusion partners.
UniProt P30542, whole entry: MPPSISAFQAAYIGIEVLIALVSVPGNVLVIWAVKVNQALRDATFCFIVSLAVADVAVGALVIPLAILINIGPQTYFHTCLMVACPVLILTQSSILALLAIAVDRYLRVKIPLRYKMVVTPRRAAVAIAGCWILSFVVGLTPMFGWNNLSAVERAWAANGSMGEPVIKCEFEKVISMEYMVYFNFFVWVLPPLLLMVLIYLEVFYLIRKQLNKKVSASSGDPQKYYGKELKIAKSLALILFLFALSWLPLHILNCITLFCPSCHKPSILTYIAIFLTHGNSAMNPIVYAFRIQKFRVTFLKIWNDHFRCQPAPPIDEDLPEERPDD
UniProt P0DMS8, whole entry: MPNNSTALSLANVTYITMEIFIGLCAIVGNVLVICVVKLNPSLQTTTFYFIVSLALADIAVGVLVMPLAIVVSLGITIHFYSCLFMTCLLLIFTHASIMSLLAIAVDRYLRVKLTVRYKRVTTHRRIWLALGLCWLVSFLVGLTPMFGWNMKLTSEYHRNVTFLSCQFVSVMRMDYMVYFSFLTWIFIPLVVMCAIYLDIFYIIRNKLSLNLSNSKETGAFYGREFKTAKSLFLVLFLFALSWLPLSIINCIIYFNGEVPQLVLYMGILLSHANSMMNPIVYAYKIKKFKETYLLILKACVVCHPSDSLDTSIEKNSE

What was measured:
Format in all cases: cell membranes
[1] = target: T1, Adenosine receptor A2b (Homo sapiens) (UniProt P29275); experiment: Displacement of [3H]-DPCPX from human A2BAR extracted from HEK cell membrane at 10 uM incubated for 30 mins by beta scintillation counter analysis relative to control
T1 sequence (whole entry): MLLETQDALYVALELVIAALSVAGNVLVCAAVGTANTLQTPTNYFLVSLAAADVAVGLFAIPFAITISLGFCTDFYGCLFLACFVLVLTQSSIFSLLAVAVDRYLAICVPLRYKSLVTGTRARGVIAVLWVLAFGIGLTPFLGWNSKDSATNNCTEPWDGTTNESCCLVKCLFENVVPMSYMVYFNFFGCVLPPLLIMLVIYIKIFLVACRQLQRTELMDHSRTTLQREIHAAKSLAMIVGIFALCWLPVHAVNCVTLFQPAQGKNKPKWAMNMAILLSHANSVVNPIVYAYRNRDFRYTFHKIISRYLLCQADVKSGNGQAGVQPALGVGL

[2] = target: Adenosine receptor A1 (Homo sapiens) (UniProt P30542); experiment: Displacement of [3H]-DPCPX from human A1AR extracted from CHO cell membrane at 10 uM incubated for 60 mins by beta scintillation counter analysis relative to control
[3] = target: Adenosine receptor A2a (Homo sapiens) (UniProt P29274); experiment: Displacement of [3H]-ZM241385 from human A2AAR extracted from human HeLa cell membrane at 10 uM incubated for 30 mins by beta scintillation counter analysis relative to control
[4] = target: Adenosine receptor A3 (Homo sapiens) (UniProt P0DMS8); experiment: Displacement of [3H]-NECA from human A3AR extracted from human HeLa cell membrane at 10 uM incubated for 180 mins by beta scintillation counter analysis relative to control

Compound: CCCCC#Cc1nc(N)c2nc(-c3ccccc3)n([C@H]3[C@H](O)[C@H](O)[C@@H]4C[C@@H]43)c2n1
- Activity [1]: 71%

Compound: CCCCC#Cc1nc(N)c2ncn([C@@H]3CC[C@@H](O)[C@H]3O)c2n1
- Activity [2]: 26%
- Activity [1]: 3%

Compound: CCCCC#Cc1nc(N)c2nc(Br)n([C@H]3[C@H](O)[C@H](O)[C@@H]4C[C@@H]43)c2n1
- Activity [2]: 84%
- Activity [1]: 23%

Compound: CCCCC#Cc1nc(N)c2nc(-c3ccco3)n([C@H]3[C@H](O)[C@H](O)[C@@H]4C[C@@H]43)c2n1
- Activity [1]: 84%

Compound: CCCCC#Cc1nc(N)c2ncn([C@]34C[C@H]3C[C@@H](O)[C@H]4O)c2n1
- Activity [2]: 18%
- Activity [3]: 56%
- Activity [1]: 7%
- Activity [4]: 77%

Compound: CCCCC#Cc1nc(N)c2nc(-c3cc4sccc4s3)n([C@H]3[C@H](O)[C@H](O)[C@@H]4C[C@@H]43)c2n1
- Activity [3]: 78%
- Activity [1]: 1%

Compound: O[C@@H]1C[C@@H]2C[C@]2(n2cnc3c(NCc4cccc(Cl)c4)ncnc32)[C@@H]1O
- Activity [2]: 15%
- Activity [3]: 19%
- Activity [1]: 10%
- Activity [4]: 70%

Compound: Nc1ncnc2c1ncn2[C@]12C[C@H]1C[C@@H](O)[C@H]2O
- Activity [2]: 18%
- Activity [3]: 12%
- Activity [1]: 3%
- Activity [4]: 13%

Compound: CCCCC#Cc1nc(N)c2nc(CCN)n([C@H]3[C@H](O)[C@H](O)[C@@H]4C[C@@H]43)c2n1
- Activity [2]: 38%
- Activity [3]: 62%
- Activity [1]: 11%
- Activity [4]: 83%

Compound: CCCCC#Cc1ccc(-c2nc3c(N)nc(C#CCCCC)nc3n2[C@H]2[C@H](O)[C@H](O)[C@@H]3C[C@@H]32)cc1
- Activity [2]: 58%
- Activity [1]: 2%

Compound: CCCCC#Cc1nc(N)c2nc(-c3ccc(C#N)cc3)n([C@H]3[C@H](O)[C@H](O)[C@H]4C[C@H]43)c2n1
- Activity [2]: 65%
- Activity [3]: 79%
- Activity [1]: 10%
- Activity [4]: 77%

Compound: CCCCC#Cc1nc(N)c2nc(-c3cccs3)n([C@H]3[C@H](O)[C@H](O)[C@@H]4C[C@@H]43)c2n1
- Activity [1]: 52%

Compound: CCCCC#Cc1nc(N)c2ncn([C@@H]3C=C[C@@H](O)[C@H]3O)c2n1
- Activity [2]: 49%
- Activity [1]: 17%
- Activity [4]: 91%
